Amino acid sequences for entries named in this document (tags omitted).
UniProt P08908, whole entry: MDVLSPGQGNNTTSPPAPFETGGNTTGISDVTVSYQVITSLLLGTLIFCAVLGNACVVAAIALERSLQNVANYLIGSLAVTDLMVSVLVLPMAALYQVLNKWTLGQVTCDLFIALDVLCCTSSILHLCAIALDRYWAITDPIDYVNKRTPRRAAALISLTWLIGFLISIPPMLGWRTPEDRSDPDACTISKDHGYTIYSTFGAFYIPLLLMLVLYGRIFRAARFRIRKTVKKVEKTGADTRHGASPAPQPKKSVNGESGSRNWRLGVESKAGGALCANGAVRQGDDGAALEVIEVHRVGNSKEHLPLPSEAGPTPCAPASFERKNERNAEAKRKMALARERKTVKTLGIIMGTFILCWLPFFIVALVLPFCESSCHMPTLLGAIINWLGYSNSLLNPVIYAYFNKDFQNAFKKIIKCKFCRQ

The assay addresses 5-hydroxytryptamine receptor 1A (Homo sapiens, UniProt P08908). Put plainly: Binding affinity for cloned human 5-hydroxytryptamine 1A receptor.
As a reminder, the Ki is a measure of affinity in units of concentration, obtained from inhibition or displacement. A low value points to a stronger hold on the target. `NCCc1c[nH]c2ccc(OCCCCC(=O)N3CCN(c4ccc(N)cc4)CC3)cc12` gave a Ki of 50.7 nM. In the case of `CS(=O)(=O)NCc1ccc(N2CCN(C(=O)COc3ccc4[nH]cc(CCN)c4c3)CC2)cc1`, the affinity, expressed as Ki, was 95 nM. The compound `N#Cc1ccccc1N1CCN(C(=O)COc2ccc3[nH]cc(CCN)c3c2)CC1` yielded a Ki of 15 nM. In turn, `NCCc1c[nH]c2ccc(OCCCC(=O)N3CCN(c4ccc([N+](=O)[O-])cc4)CC3)cc12` returned a Ki of 15.1 nM. Regarding `CN(C)S(=O)(=O)Nc1ccc(N2CCN(C(=O)COc3ccc4[nH]cc(CCN)c4c3)CC2)cc1.Cl.O`, the Ki was found to be 40.3 nM.

As for `CS(=O)(=O)NCc1ccccc1N1CCN(C(=O)COc2ccc3[nH]cc(CCN)c3c2)CC1`, the Ki amounted to 5.1 nM. In turn, `NCCc1c[nH]c2ccc(OCCCCCC(=O)N3CCN(c4ccc(N)cc4)CC3)cc12` came in with a Ki of 42.6 nM. On to `NCCc1c[nH]c2ccc(OCCCCCC(=O)N3CCN(c4ccc([N+](=O)[O-])cc4)CC3)cc12`, for which the Ki was 12.8 nM. As to `NCCc1c[nH]c2ccc(OCC(=O)N3CCN(c4ccc(CN)cc4)CC3)cc12`, the affinity, expressed as Ki, was 130 nM. With `CS(=O)(=O)Nc1ccc(N2CCN(C(=O)COc3ccc4[nH]cc(CCN)c4c3)CC2)cc1`, the affinity, expressed as Ki, was 68.9 nM.

In the case of `NCCc1c[nH]c2ccc(OCCCCC(=O)N3CCN(c4ccc([N+](=O)[O-])cc4)CC3)cc12`, the affinity, expressed as Ki, was 15.9 nM. `CS(=O)(=O)Nc1ccc(N2CCN(C(=O)CCCCCOc3ccc4[nH]cc(CCN)c4c3)CC2)cc1` came in with a Ki of 10.2 nM.

`NCCc1c[nH]c2ccc(OCC(=O)N3CCN(c4ccccc4CN)CC3)cc12` yielded a Ki of 13.6 nM. Compound `NCCc1c[nH]c2ccc(OCC(=O)N3CCN(c4ccccc4[N+](=O)[O-])CC3)cc12` displayed a Ki of 5.2 nM.

Compound `NCCc1c[nH]c2ccc(OCC(=O)N3CCN(c4ccc(N)cc4)CC3)cc12` yielded a Ki of 607 nM.

In turn, `NCCc1c[nH]c2ccc(OCC(=O)N3CCN(c4ccc(NC(=O)c5ccccc5)cc4)CC3)cc12` registered a Ki of 61 nM.

Turning to `NCCc1c[nH]c2ccc(OCC(=O)N3CCN(c4ccc([N+](=O)[O-])cc4)CC3)cc12`, the Ki is 24 nM.

Turning to `NCCc1c[nH]c2ccc(OCC(=O)N3CCN(c4ccccc4)CC3)cc12`, affinity was put at a Ki of 10.4 nM.

Values taken from ChEMBL document CHEMBL1128546 (J Med Chem, 1995).
